From patent US20250064954A1

Amino acid sequences for entries named in this document (tags omitted). Residues count along the entry.
UniProt P04150, 524-758 limits assumed: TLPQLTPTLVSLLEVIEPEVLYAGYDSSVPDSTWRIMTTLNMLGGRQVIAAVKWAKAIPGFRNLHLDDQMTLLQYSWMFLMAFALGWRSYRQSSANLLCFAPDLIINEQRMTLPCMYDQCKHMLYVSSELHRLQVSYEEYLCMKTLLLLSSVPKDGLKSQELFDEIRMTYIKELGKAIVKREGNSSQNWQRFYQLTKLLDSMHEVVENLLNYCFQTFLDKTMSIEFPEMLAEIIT

Biological target: Glucocorticoid Receptor (GR) (Homo sapiens, UniProt P04150)
Experiment: Cell based GR responsive luciferase reporter assay in HEK293/UASLuc/pBIND-GR cells
Conditions: 48 hours

## CCCC1O[C@@H]2C[C@H]3[C@@H]4C[C@H](F)C5=CC(=O)C=C[C@]5(C)[C@@]4(F)[C@@H](O)C[C@]3(C)[C@]2(C(=O)COC(=O)c2ccc(CN)cc2)O1 (some centres unmarked)
  EC50: 0.149 nM
Ratio of highest RLU on the dose response curve to RLU in untreated wells
  S/N: 12.4
